In patent EP4821508A1, “PROPHYLACTIC OR THERAPEUTIC AGENT FOR POLYCYSTIC KIDNEY DISEASE” (dated 2026):

Key:
[1] = system: PC2 mutant mIMCD3 cells; assay: Tubule diameter enlargement inhibitory assay in 3D cyst culture system, PC2 mutant cells
Method: (§1) Using mutant mIMCD3 cells expressing a polycystin 1 missense protein or mutant mIMCD3 cells expressing a polycystin 2 missense protein, it was examined whether each compound has an activity of suppressing cyst enlargement. The mutation in the polycystin 1 protein or polycystin 2 protein reduces primary ciliary activity and results in cyst enlargement.
Three-dimensional cultures of the mutant mIMCD3 cells were prepared in accordance with the method described by Rachel H. Giles et al. (Nature Protocols, volume 9, pages 2725-2731 (2014)). In mIMCD3 cells (mIMCD3 cells: ATCC Cat. No. CRL-2123), PC1 mutant mouse kidney collecting duct-derived cells (PC1 mutant mIMCD3 cells) expressing a polycystin 1 missense protein (a mutation in which cysteine at position 210 in the amino acid sequence of SEQ ID NO: 1 is substituted with glycine), or PC2 mutant mIMCD3 cells expressing a polycystin 2 missense protein (a mutation in which tryptophan at position 412 in the amino acid sequence of SEQ ID NO: 2 (corresponding to position 414 in a human polycystin 2 missense protein) is substituted with glycine) were prepared. Each of the mutant mIMCD3 cells was suspended in DMEM/F-12 (L-glutamine) medium supplemented with 10% (vol/vol) FBS and 1% (vol/vol) penicillin-streptomycin, mixed with the compound A, C, R, or V at 20 µM or cholesterol at 200 µM, and Matrigel, and then transferred to an 8-well chamber slide plate. The mixture was incubated at 37°C under 5% CO2 conditions until solidification (15 to 30 minutes). Thereafter, pre-warmed medium was added to the solidified cell-Matrigel layer, and the cells were incubated at 37°C under 5% CO2 conditions with medium replacement until cyst formation.
(§2) The cysts thus formed were fixed, and sections were prepared. Subsequently, F-actin was stained with phalloidin, and DNA was stained with DAPI, followed by imaging using a fluorescence microscope. Further, in the merged images of the formed cysts, the size of the epithelial lumen formed inside the cyst was defined as the inner diameter, and the overall size of the cyst was defined as the outer diameter, and an inner diameter/outer diameter ratio was calculated. In FIG. 7A, the dotted line in the merged image indicates the width of the inner diameter.
Using the PC2 mutant mIMCD3 cells, the compounds A, G, and R, as well as the existing drug tolvaptan, were each added at three concentrations of 3.75 µM, 7.5 µM, and 15 µM, and it was examined, in the same manner as in Example 4, whether each compound has an activity of suppressing enlargement of cyst tubule diameter.
Further, using the PC2 mutant mIMCD3 cells, the compound A, the compound G, and the compound G-OH, which is a derivative of the compound G, were each added at 20 µM, and it was examined, in the same manner as in Example 4, whether each compound has an activity of suppressing enlargement of cyst tubule diameter.
In Example 4, the compounds A, C, and R were used. Additionally, the compounds B, Q, K, J, and I were evaluated in the same manner for their inhibitory effects on tubule diameter enlargement. The above PC2 mutant mIMCD3 cells were used as cells, and the compounds A, G, B, Q, K, J, and I were used as compounds. The compounds A, G, B, Q, K, and J were each used at 20 µM, while the compound I was used at four concentrations of 2.5 µM, 5 µM, 10 µM, and 20 µM. In the same manner as in Example 4, images were obtained using a fluorescence microscope, and the inner diameter/outer diameter ratio was determined. The results for the compounds A, G, B, Q, K, and J are shown in FIGS. 10A and 10B, and the results for the compounds A and I are shown in FIGS. 11A and 11B.

[2] = system: CRFK cells; assay: PC1 increasing activity assay in primary cilia of CRFK cells; settings: 20 µM, 37°C, 8, 16 or 24 hours
Method: The effect of the compound G on increasing PC1 in primary cilia was evaluated. CRFK cells, which are a feline kidney-derived epithelial cell line, were prepared, and after treatment with the compound G (final concentration of 20 µM) at 37°C for 8, 16, or 24 hours, multiplex staining was performed with anti-polycystin 1 antibodies (Santa Cruz Biotechnology Inc.), anti-acetylated tubulin antibodies (Merck KGaA) as a primary cilium marker, and anti-FGFR1OP antibodies (Proteintech Group, Inc.) as a centrosome marker. The results of observation of PC1 in primary cilia using a confocal laser microscope and the results of measurement of fluorescence intensity of PC1 in primary cilia are shown in FIGS. 13A and 13B.

[3] = system: induced pluripotent stem cells derived from patients with autosomal dominant polycystic kidney disease (HPS2192 cells, HPS2636 cells); assay: Recovery assay of primary ciliary localization of polycystin 2 protein in patient-derived iPS cells; settings: 37°C, 24 hours
Method: Using induced pluripotent stem cells derived from patients with autosomal dominant polycystic kidney disease (HPS2192 cells: RIKEN BRC RRID: CVCL_YS47 and HPS2636 cells: RIKEN BRC RRID: CVCL_YS58; RIKEN BioResource Research Center), it was examined whether the compound G-OH at 5 µM, 10 µM, and 20 µM, or the existing drug tolvaptan at 20 µM, has an activity of restoring localization of polycystin 2 protein to primary cilia.
The above human induced pluripotent stem cells were treated with the compound G-OH or tolvaptan at 37°C for 24 hours, followed by multiplex staining with anti-polycystin 2 antibodies (Santa Cruz Biotechnology Inc.), anti-ARL13B antibodies (Santa Cruz Biotechnology Inc.) as a primary cilium marker, and anti-FGFR1OP antibodies (Proteintech Group, Inc.) as a centrosome marker. The results of observation of polycystin 2 in primary cilia using a confocal laser microscope and the results of quantification of polycystin 2 levels in primary cilia by immunostaining are shown in FIGS. 12A and 12B. As a control, induced pluripotent stem cells derived from a healthy individual (HPS1006 cells: RIKEN BRC RRID: CVCL_UP39; RIKEN BioResource Research Center) were used (wild-type).

[4] = system: VAP-A-deficient hTERT-RPE1 cells; assay: Primary ciliary cholesterol delivery activity assay (Filipin III staining), VAP-A-deficient hTERT-RPE1 cells; settings: VAP-A-deficient hTERT-RPE1 cells (VAPA-/-), 37°C, 4 hours
Method: Among the hit compounds obtained in Example 1, 10 compounds (compounds A, C, D, I, R, V, AB, AF, AL, and AP) were evaluated for their ability to increase cholesterol in primary cilia. hTERT-immortalized human retinal pigment epithelial cells (hTERT-RPE1 cells: ATCC CRL-4000) were treated with the hit compounds at 37°C for 4 hours, followed by multiplex staining with the cholesterol probe Filipin III (Merck KGaA), anti-acetylated tubulin antibodies (Merck KGaA) as a primary cilium marker, and anti-pericentrin antibodies (Bethyl Laboratories, Inc.) as a centrosome marker. The results of observation of cholesterol in primary cilia using a confocal laser microscope and the results of measurement of Filipin III fluorescence intensity in primary cilia are shown in FIG. 2A to FIG. 4B. In addition, the same analysis was performed using VAP-A-deficient hTERT-RPE1 cells generated by deleting the VAP-A gene using the CRISPR-ObLiGaRe method established by Royba, Miyamoto et al. (Sci Rep 2017). In the drawings, VAPA+/+ indicates hTERT-RPE1 cells, and VAPA-/- indicates VAP-A-deficient hTERT-RPE1 cells.

[5] = system: PC1 mutant mIMCD3 cells; assay: Tubule diameter enlargement inhibitory assay in 3D cyst culture system, PC1 mutant cells; settings: 20 µM, cholesterol comparator 200 µM
Method: as §1
Three-dimensional cultures of the mutant mIMCD3 cells were prepared in accordance with the method described by Rachel H. Giles et al. (Nature Protocols, volume 9, pages 2725-2731 (2014)). […]
as §2, with “In FIG. 7A, the dotted line in the merged image indicates the width of the inner diameter.” left out

[6] = system: mIMCD3 cells expressing a polycystin 1 missense protein; assay: Recovery assay of primary ciliary localization of polycystin 1 missense protein; settings: mutant mIMCD3 cells (C210G), 37°C, 4 hours
Method: Using mouse kidney collecting duct-derived cells (mIMCD3 cells: ATCC Cat. No. CRL-2123) expressing a polycystin 1 missense protein (a mutation in which cysteine at position 210 in the amino acid sequence of SEQ ID NO: 1 is substituted with glycine), it was examined whether the compound C has an activity to restore localization of polycystin 1 to primary cilia.
The above mutant mIMCD3 cells were treated with the compound C at 37°C for 4 hours, followed by multiplex staining with anti-polycystin 1 antibodies (Santa Cruz Biotechnology Inc.), anti-acetylated tubulin antibodies (Merck KGaA) as a primary cilium marker, and anti-FGFR10P antibodies (Proteintech Group, Inc.) as a centrosome marker. The results of observation of cholesterol in primary cilia using a confocal laser microscope and the results of measurement of fluorescence intensity of polycystin 1 protein in primary cilia are shown in FIGS. 6A and 6B. As a control, mIMCD3 cells without mutations were used (Wild type).

[7] = 3.75 µM, 7.5 µM and 15 µM, compared with tolvaptan

O=C(Nc1ccc(Br)cc1)c1cc(S(=O)(=O)NC2CCCCC2)ccc1Cl
inner diameter/outer diameter ratio of cysts ([1]; 20 µM): activity of suppressing cyst size at a level comparable to that of the compound A

COCCCNc1ncnc2c1cnn2-c1ccc(C)cc1C
PC1 in primary cilia (fluorescence intensity) [2]: has an activity of increasing PC1 in primary cilia
inner diameter/outer diameter ratio of cysts [1, 7]: activity of suppressing cyst size to a level comparable to that of tolvaptan
inner diameter/outer diameter ratio of cysts ([1]; 20 µM): has an activity of suppressing cyst size

Cc1ccc(-n2ncc3c(NCCCO)ncnc32)c(C)c1
amount of polycystin 2 in primary cilia ([3]; 5 µM, 10 µM and 20 µM): increased in a dose-dependent manner
restoring localization of polycystin 2 to primary cilia ([3]; patient-derived iPS cells): has an activity of restoring localization of polycystin 2 to primary cilia
inner diameter/outer diameter ratio of cysts ([1]; 20 µM): has an activity of suppressing cyst size

COc1ccccc1CNS(=O)(=O)c1ccc(F)c(C(=O)Nc2cc(C)cc(C)c2)c1
cholesterol in the primary cilia (Filipin III fluorescence intensity) [4]: not observed
inner diameter/outer diameter ratio of cysts ([1]; 10 µM and 20 µM (tested at 2.5, 5, 10, 20 µM)): activity of suppressing cyst size at a level comparable to that of the compound A

Cc1ccccc1C(=O)Nc1ccc(C(=O)N2CCCC(O)c3cc(Cl)ccc32)c(C)c1 (stereo not shown)
amount of polycystin 2 in primary cilia ([3]; 20 µM): did not show activity

Cc1cccc(-n2ncc3c(NCc4ccc(F)cc4)ncnc32)c1
inner diameter/outer diameter ratio of cysts ([1]; 20 µM): activity of suppressing cyst size at a level comparable to that of the compound G

Cc1ccc(-c2csc(NC(=O)c3ccc([N+](=O)[O-])cc3)n2)cc1C
inner diameter/outer diameter ratio of cysts [5]: reduced the inner diameter/outer diameter ratio to a level comparable to a level similar to that observed with cholesterol treatment
inner diameter/outer diameter ratio of cysts [1, 7]: activity of suppressing cyst size greater than that of tolvaptan
inner diameter/outer diameter ratio of cysts ([1]; 20 µM): reduced the inner diameter/outer diameter ratio to a level comparable to a level similar to that observed with cholesterol treatment

O=C1C2C3C=CC(C3)C2C(=O)N1Cc1ccccc1 (stereo not shown)
localization of polycystin 1 to the primary cilia (fluorescence intensity of polycystin 1) [6]: has an activity to restore localization of polycystin 1 to the primary cilia
cholesterol in the primary cilia (Filipin III fluorescence intensity) [4]: not observed
inner diameter/outer diameter ratio of cysts [5]: reduced the inner diameter/outer diameter ratio to a level comparable to a level similar to that observed with cholesterol treatment
inner diameter/outer diameter ratio of cysts ([1]; 20 µM): reduced the inner diameter/outer diameter ratio to a level comparable to a level similar to that observed with cholesterol treatment

COc1ccc(-n2ncc3c(Nc4cc(C)cc(C)c4)ncnc32)cc1
inner diameter/outer diameter ratio of cysts ([1]; 20 µM): activity of suppressing cyst size at a level comparable to that of the compound G
